The results in this text go back to patent publication US5756504A, “Tocolytic oxytocin receptor antagonists” (priority 1996, dated 1998).

The target in the assay is T1, human myometrium ([^3 H]oxytocin binding site) (Homo sapiens, UniProt P30559).
T1 construct: tissue Oregon Health Sciences Center, Portland, Oreg; host or cells: full-thickness uterine tissue of nonlabor pregnant women at cesarean section, crude membranes
T1 sequence (P30559 1-389): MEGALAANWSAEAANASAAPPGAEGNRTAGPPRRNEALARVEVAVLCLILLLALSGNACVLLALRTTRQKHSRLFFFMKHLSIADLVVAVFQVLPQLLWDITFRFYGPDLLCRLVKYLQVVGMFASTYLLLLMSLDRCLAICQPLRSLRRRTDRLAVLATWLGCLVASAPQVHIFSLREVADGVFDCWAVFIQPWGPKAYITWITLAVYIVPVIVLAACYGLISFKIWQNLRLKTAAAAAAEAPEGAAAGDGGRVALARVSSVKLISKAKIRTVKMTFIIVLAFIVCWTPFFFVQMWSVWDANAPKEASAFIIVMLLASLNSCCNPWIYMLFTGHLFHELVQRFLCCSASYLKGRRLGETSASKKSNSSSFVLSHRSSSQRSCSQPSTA
Description: [3H]OT equilibrium saturation binding, human myometrium. As to conditions: mean, n=3 saturation binding assays. The procedure:
Ther., 256(1): 304-308 (1991)]. Uterine tissue was taken from nonpregnant adult Sprague-Dawley rats (Taconic Farms, Germantown, N.Y.) pretreated (18-24 h) with diethylstilbestrol propionate (DES; 300 μg/kg, i.p.). Uterine tissue (full thickness) was also taken with informed consent from nonlabor pregnant women undergoing cesarean section at 38 to 39 weeks gestation (Oregon Health Sciences Center, Portland, Oreg.). Liver and kidney medulla samples were taken from male rats and from human surgical and early postmortem donors (National Disease Research Interchange, Philadelphia Pa.; Analytical Biological Services, Wilmington, Del.).
Nonspecific binding was determined using 1 μM unlabeled OT or AVP in their respective assays. The binding reactions were initiated by the addition of tissue preparation and terminated by filtration using a Skatron cell harvester (model 7019, Skatron, Inc., Sterling, Va.). […] The final protein concentration for the various tissues in each assay ranged from 150 to 300 μg/ml [Lowry, P. H.; Rosebrough, N. J.; Farr, A. L.; Randall, R. J.; J. Biol. Chem., 193:265-275 (1951)].

Substance [^3 H]oxytocin [[^3 H]OT] displayed an equilibrium dissociation constant (Kd) of 1.1 nM.

Broadly, the Kd is the constant that tells how readily two partners part at equilibrium. A lower Kd goes with higher affinity.
